Measured values taken from patent US11147875B2, “Compositions, combinations and related methods for photoimmunotherapy” (priority 2015, dated 2021).
Where two headings read alike, the source gives them in different places.

Columns and labels:
THP1 cells [1] = assay: CD86 on THP1 cells co-cultured with PIT-treated tumor cells, flow cytometry; assay type: cell-based, human; conditions: 500 ng/mL, 12 J/cm^2
Protocol: A431 cell line was grown in complete RPMI and T98G, FaDu and U87 tumor cell lines were grown in complete EMEM media. The cells were plated at 15,000 cells in 100 μL total volume per well in a 96 well tissue culture plate for adherence overnight. The viability of the cells prior to plating was checked via trypan blue exclusion method and >95% cells were viable.
The next day the cells were treated with cetuximab-IR700 at 500 ng/mL for 1 hr at 37° C. in the CO2 incubator and then were treated with light by subjecting the cells to 690 nm laser light fluence of 12 J/cm^2. The controls represented wells corresponding to the groups not treated with light (non-PIT treated tumor cells).
THP1 cells (ATCC® TIB202™) were grown in complete RPMI. For co-culture, 15,000 THP1 cells were directly added into the wells with PIT treated tumor cells and control non PIT treated tumor cell wells. The co-cultures were then incubated for 24 hours at 37° C. in the CO2 incubator. […]
Cells were resuspended in stain buffer and human Fc blocking reagent (BD Biosciences) was then added and cells were incubated for 20 min at room temperature. […] Appropriate gating was done while analyzing the data to exclude cell debris and the data was analyzed with gating performed on live events. […] The results were based on mean fluorescence intensity (MFI) data from each group which was plotted as fold increase over the no light controls. […]

EGFR = target: T1, EGFR (Homo sapiens, UniProt P00533); assay: In-Cell ELISA of EGF-induced EGFR phosphorylation in A431 cells; assay type: cell-based; conditions: 100 ng/mL EGF
T1 construct: A431 cells (ATCC CRL 1555) were plated in wells of a 96-well plate; host or cells: A431 cells

THP1 cells [2] = assay: PIT killing of Fc receptor-expressing cells; assay type: cell-based, human; conditions: 500 ng/mL, 32 J/cm^2, with or without Fc receptor blocking
Protocol: THP1 cells (ATCC, TIB-202) grown in complete RPMI 1640 medium were plated at 5000 cells in 100 μL total volume per well in a 96 well tissue culture plate for adherence overnight. The viability of the cells prior to plating was checked via trypan blue exclusion method and >95% cells were viable.
To induce killing, cells in each group were subjected to 690 nm laser light at a dose of 32 J/cm^2. The controls represented wells corresponding to the groups described above but not treated with light. Cell killing was assessed using CellTox Green as described substantially as described Example 6. CellTox Green dye (1×) was added to the wells and cells were incubated for 24 hours at 37° C. in an incubator. The dye was also added to couple of wells just containing 100 μL of the medium for background subtraction later. After the incubation, the tissue culture plate was immediately read on a plate reader. […] The plate was then read again to obtain values for 100% cell death. For each read, the two background wells were averaged and their values subtracted from all other wells. In order to calculate the % cell death for each well, the background subtracted value from the first read was divided by the value from the second read (after lysis), and multiplied by 100.

BxPC3 cells [3] = assay: Cell staining with dual CTX-IRDye 700DX conjugates, flow cytometry; assay type: cell-based; conditions: excitation 488 nm, emission filter (530 nm/30 nm)
BxPC3 cells [4] = assay: PIT killing by light pre-exposed cetuximab-IRDye 700DX; assay type: cell-based
Staphylococcus aureus = assay: PIT killing of bacteria, colony forming units; assay type: cell-based; conditions: 100 μg/mL, 690 nm laser at 300 J/cm^2
Protocol: The cells were then illuminated with a 690 nm laser at 0 or 300 J/cm^2. The number of remaining viable bacterial cells was determined by counting colony forming units (CFU) on BHI agar plates under the following conditions. As a control, the number of viable bacterial cells also was assessed in cells treated with cetuximab-IRDye 700DX incubation alone but without laser illumination, laser illumination alone, or untreated. Percent of viable CFU was normalized to bacterial cells with no treatment.

A431 cells = assay: In vitro PIT, CellTox Green cell death; assay type: cell-based
Protocol: Then, 8 J/cm^2 of 690 nm light was applied to induce PIT. To monitor the progression of cell death after light treatment, the conjugate containing medium was replaced by fresh medium containing CellTox Green (Promega), a dye that reports cell death based on compromised cell membrane integrity. Time dependent increase in cell death was observed over 24 hours. As a control, cell death also was assessed in cells in which cetuximab-IRDye 700DX conjugate was not added (designated “NT”).

BxPC3 cells [5] = assay: Fluorescence of cells stained with cetuximab conjugates with or without secondary antibody, flow cytometry; assay type: cell-based; conditions: 250 ng/mL 1st incubation
[6] = single dosage administration, sample patient population

cetuximab-IRDye 700DX: conjugate containing IRDye 700DX (IR700) linked to cetuximab
Cetuximab-IR700 Mean AUC0-24 (4.0 mg/kg, 160 mg/m^2, single IV infusion): 770 ± 47.5 µg·h/mL
Cetuximab-IR700 Mean AUC0-24 (8.0 mg/kg, 320 mg/m^2, single IV infusion): 1700 ± 166 µg·h/mL
Cetuximab-IR700 Mean AUC0-24 (16.0 mg/kg, 640 mg/m^2, single IV infusion): 3,690 +/− 1,060 hr*μg/mL
mean AUC0-24 (640 mg/m^2): 3,690 μg/mL*h
mean AUC0-24 as percent of the extrapolated AUC of 1-month Erbitux treatment (640 mg/m^2): approximately 6%
mean systemic exposure (AUC0-24) [6]: ~770 ± 47.5 µg·h/mL
mean systemic exposure (AUC0-inf) [6]: about 1810 μg/mL*h
CD86 surface expression (THP1 cells [1]; co-culture with PIT-treated A431 cells): increased surface CD86 expression
CD86 surface expression (THP1 cells [1]; co-culture with PIT-treated FaDu cells): increased surface CD86 expression
IC50, inhibition of EGF-induced EGFR phosphorylation (EGFR): 0.57 µg/mL
cell killing (THP1 cells [2]): Fc receptor-specific killing
Fluorescence Intensity (AU) (BxPC3 cells [3]): 87 AU
cell death (BxPC3 cells [4]; all pre-exposed samples, 1 μg/mL, 0 J/cm^2): no effect on cell death was observed
PIT activity (BxPC3 cells [4]; pre-exposed to 3,000 Lux-Hours or more white fluorescent light, 32 J/cm^2): less than 90%
PIT potency (BxPC3 cells [4]; pre-exposed to all lux-hour doses of green light, 32 J/cm^2): did not result in an effect in PIT potency
viable CFU (Staphylococcus aureus): statistically significant CFU reduction
concentration for half maximal cell death vs concentration to block half the phosphorylation (A431 cells): more than 15 times lower
concentration that led to 90% cell death (A431 cells; 8 J/cm^2 of 690 nm light): 257 ng/mL
half maximal cell death (EC50) from PIT (A431 cells; 8 J/cm^2 of 690 nm light, 24 hours): 0.0376 µg/mL
Fluorescence (BxPC3 cells [5]; 2nd incubation 2 μg/mL Don × Hu IRDye 700DX): 74,100
Fluorescence (BxPC3 cells [5]; no 2nd incubation): 36,099
